Molecular target: Carbonic anhydrase 2 (Homo sapiens, UniProt P00918)

Compound: O=C(O)c1ccc(O)cc1
- Ki: 7.28 µM
